pIC50: −log10 of the molar value.
Tests used:
human adenosine A1 (A1R) = biological target: T1, human adenosine A1 (A1R) (Homo sapiens, UniProt P30542); experiment: Yeast β-galactosidase reporter gene assay, strain CY12660; format: cell-based; details: inhibition of NECA-induced β-galactosidase activity
T1 construct: yeast alpha-factor (Mfα1) prepro leader (N, cleaved yes); expressed in transfected cells; host or cells: Saccharomyces cerevisiae (strain CY12660 or related strains carrying plasmid p5095)

Sequences of proteins named here, by UniProt entry; tags and fusion partners are left off. A change or cut given only in a name is not applied to a line headed by its entry.
UniProt P30542, whole entry: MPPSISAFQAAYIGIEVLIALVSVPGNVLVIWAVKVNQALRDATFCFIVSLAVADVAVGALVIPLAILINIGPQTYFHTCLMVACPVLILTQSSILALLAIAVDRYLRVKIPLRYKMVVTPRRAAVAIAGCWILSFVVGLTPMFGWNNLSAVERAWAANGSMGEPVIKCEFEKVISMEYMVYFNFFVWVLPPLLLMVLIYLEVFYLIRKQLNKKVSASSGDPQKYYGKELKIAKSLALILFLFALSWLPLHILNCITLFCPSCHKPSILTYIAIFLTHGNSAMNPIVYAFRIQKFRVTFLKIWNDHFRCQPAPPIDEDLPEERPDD
UniProt P0DMS8, whole entry: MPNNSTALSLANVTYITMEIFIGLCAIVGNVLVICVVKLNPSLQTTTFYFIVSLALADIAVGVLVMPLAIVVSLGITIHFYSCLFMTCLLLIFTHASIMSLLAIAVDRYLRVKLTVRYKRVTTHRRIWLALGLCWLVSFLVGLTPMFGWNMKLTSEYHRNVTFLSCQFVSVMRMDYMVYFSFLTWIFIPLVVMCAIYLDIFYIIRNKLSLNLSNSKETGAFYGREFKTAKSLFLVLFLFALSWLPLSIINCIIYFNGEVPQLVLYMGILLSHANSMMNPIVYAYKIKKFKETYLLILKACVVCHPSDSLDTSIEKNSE

human A3 receptor = human A3 receptor (Homo sapiens, UniProt P0DMS8); experiment: Displacement binding, yeast membranes expressing hA3R; details: read-out: IC50 hA3R

pIC50 (human adenosine A1 (A1R)) | pIC50 (human A3 receptor) | SMILES
< 5.00 | – | Cc1[nH]c2nc(-c3ccccc3)nc(NC3CC[C@@H](O)[C@@H](O)C3)c2c1C (some centres unmarked) [Compound 602]
– | 7.63 | C[C@H](Cc1ccccc1)Nc1ncnc2c1ncn2[C@@H]1O[C@H](CO)[C@@H](O)[C@H]1O [R-PIA]
